In test [1] the target is T1, human NK3 receptor (Homo sapiens, UniProt P29371). The experiment in a line: Binding potency of the test substances to NK3-receptors in vitro ([3H]-SR 142801 displacement). The conditions noted are these: human NK3-receptor in CHO cell membranes, [3H]-SR 142801 (osanetant); average of at least three measurements.
For test [2], the target named is T2, human NK2-receptor (Homo sapiens, UniProt P21452). The test can be described thus: Functional cellular test, Ca2+ measurements using FLIPR for NK2 activity.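 Also: CHO cells stably expressing the human receptor, loaded with a calcium dye, antagonist inhibition of ligand-evoked intracellular calcium rise read as peak fluorescence change on FLIPR.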 The conditions noted are these: CHO cells, agonist NKA 10^-7 M.
In test [3] the target is T1, human NK3 receptor. The experiment in a line: Functional cellular test, Ca2+ measurements using aequorin for NK3 activity. Type of test: cell-based. As to conditions: cell line with human NK3 receptor and apoaequorin, agonist senktide 5x10-8 M.
The target in test [4] is T2, human NK2-receptor. The experiment in a line: Binding potency of the test substances to NK2-receptors in vitro ([3H]-SR 48968 displacement). As to conditions: human NK2-receptor in CHO cell membranes, [3H]-SR 48968 (saredutant); average of at least three measurements.

Protein sequences, listed by entry. Tags and fused reporters are not part of them.
UniProt P29371, whole entry: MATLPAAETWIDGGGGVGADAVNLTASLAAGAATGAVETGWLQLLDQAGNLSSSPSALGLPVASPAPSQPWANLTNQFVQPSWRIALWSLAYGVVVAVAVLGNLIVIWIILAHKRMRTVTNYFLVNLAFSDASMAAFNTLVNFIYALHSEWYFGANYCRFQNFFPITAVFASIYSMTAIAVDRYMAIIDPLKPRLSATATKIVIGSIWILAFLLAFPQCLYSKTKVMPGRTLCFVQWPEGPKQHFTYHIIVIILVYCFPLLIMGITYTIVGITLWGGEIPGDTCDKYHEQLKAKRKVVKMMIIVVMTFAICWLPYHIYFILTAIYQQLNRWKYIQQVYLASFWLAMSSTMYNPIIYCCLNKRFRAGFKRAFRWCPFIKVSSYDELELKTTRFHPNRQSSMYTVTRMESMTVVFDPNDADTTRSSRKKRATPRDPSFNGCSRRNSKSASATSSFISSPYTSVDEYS
UniProt P21452, whole entry: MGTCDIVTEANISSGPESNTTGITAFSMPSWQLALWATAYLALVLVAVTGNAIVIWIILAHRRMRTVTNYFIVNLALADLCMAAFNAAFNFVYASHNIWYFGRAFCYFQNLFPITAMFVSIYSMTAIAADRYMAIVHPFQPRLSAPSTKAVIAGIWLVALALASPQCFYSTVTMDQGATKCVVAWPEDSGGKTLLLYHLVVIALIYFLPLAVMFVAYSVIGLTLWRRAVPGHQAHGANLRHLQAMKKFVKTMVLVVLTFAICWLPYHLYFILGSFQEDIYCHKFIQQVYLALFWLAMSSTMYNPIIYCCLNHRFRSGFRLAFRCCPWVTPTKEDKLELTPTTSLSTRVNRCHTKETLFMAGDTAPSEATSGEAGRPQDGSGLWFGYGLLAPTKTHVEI

On to `CC(=O)Oc1ccccc1C(=O)N(C)CC(CCN1CCC(C(=O)N(C)C)(N2CCCCC2)CC1)c1ccc(Cl)c(Cl)c1` (stereo not shown), for which, at human NK3 receptor [1], the “pKi, binding potency to NK3-receptors” value was found to be 8.0. For the same molecule, the “pA2 data for NK2” value at human NK2-receptor [2] stood at 8.6. Also, the “pA2 data for NK3” value on human NK3 receptor [3] was 8.1. The “pKi, binding potency to NK2-receptors” value on human NK2-receptor [4] came to 8.7.

For the origin of these results see US20070219214A1, “Dual NK2/NK3-antagonists, pharmaceutical compositions comprising them, and processes for their preparation” (Solvay pharmaceuticals GmbH, priority 2006, published 2007).
